Like-named read-outs stand apart in the source and are kept apart here.

As to Sacubitril/Valsartan trisodium, the “Chromatographic purity by HPLC” value reads like this: (5 ± 2° C., 3 Months) 99.94%; (5 ± 2° C., 5 Months) 99.96%; (5 ± 2° C., Initial) 99.90%; (25 ± 2° C., 3 Months) 99.94%; (25 ± 2° C., 5 Months) 99.95%; (25 ± 2° C., Initial) 99.90%. For the same substance, the PXRD result is “Amorphous” (5 ± 2° C., 3 Months); “Amorphous” (5 ± 2° C., 5 Months); “Amorphous” (5 ± 2° C., Initial); “Amorphous” (25 ± 2° C., 3 Months); “Amorphous” (25 ± 2° C., 5 Months); “Amorphous” (25 ± 2° C., Initial). Moreover, the Water content is 3.86% (5 ± 2° C., 3 Months); 3.60% (5 ± 2° C., 5 Months); 3.5% (5 ± 2° C., Initial); 4.59% (25 ± 2° C., 3 Months); 5.5% (25 ± 2° C., 5 Months); 3.50% (25 ± 2° C., Initial).
